Experimental findings from USRE39616E1, “Aminoindan derivatives” (priority 1996, dated 2007) are described below.

Protein sequences, listed by entry. Tags and fused reporters are not part of them. Residues count along the entry.
UniProt P21836, 32-614 limits assumed: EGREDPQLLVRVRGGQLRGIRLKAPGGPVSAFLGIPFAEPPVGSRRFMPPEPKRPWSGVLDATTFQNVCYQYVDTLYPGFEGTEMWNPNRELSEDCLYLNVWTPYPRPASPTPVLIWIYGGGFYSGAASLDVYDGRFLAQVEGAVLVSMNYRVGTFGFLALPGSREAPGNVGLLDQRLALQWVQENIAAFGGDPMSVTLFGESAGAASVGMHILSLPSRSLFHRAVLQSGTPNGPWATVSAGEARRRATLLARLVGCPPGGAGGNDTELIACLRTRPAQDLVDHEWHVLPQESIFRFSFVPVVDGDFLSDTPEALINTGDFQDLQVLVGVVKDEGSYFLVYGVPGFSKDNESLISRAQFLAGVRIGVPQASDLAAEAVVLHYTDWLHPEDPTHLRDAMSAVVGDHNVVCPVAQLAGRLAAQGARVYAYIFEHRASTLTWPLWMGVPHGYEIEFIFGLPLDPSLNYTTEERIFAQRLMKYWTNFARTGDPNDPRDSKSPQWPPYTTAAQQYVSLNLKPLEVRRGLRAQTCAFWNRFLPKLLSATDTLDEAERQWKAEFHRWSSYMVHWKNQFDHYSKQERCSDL
UniProt Q64133, whole entry: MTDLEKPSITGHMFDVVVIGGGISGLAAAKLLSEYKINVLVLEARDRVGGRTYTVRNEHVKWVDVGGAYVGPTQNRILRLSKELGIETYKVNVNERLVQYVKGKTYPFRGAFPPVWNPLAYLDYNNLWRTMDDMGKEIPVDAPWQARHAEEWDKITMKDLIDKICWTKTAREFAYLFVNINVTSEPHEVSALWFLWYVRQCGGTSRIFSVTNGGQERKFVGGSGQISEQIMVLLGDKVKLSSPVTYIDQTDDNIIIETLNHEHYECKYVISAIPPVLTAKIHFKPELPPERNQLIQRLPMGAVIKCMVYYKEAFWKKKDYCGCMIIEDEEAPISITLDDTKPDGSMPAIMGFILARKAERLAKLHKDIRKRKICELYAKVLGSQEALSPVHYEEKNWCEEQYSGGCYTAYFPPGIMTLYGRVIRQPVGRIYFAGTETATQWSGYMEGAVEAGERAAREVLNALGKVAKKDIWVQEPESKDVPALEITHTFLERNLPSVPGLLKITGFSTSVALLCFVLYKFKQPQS
UniProt Q8BW75, whole entry: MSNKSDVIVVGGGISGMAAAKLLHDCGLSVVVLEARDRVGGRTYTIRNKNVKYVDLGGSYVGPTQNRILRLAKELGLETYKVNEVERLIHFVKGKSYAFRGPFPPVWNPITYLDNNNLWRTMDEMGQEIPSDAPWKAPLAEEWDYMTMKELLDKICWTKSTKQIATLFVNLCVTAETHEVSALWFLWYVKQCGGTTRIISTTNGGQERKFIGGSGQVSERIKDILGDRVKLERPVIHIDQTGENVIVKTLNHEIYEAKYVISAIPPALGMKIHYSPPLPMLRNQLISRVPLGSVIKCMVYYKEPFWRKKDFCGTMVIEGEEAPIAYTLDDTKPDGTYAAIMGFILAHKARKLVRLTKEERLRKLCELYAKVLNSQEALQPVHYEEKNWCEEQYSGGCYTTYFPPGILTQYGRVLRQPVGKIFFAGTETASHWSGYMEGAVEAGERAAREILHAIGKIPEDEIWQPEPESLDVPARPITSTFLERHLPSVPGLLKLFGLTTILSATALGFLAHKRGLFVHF
UniProt P22303, 32-617 isoform 2 limits assumed: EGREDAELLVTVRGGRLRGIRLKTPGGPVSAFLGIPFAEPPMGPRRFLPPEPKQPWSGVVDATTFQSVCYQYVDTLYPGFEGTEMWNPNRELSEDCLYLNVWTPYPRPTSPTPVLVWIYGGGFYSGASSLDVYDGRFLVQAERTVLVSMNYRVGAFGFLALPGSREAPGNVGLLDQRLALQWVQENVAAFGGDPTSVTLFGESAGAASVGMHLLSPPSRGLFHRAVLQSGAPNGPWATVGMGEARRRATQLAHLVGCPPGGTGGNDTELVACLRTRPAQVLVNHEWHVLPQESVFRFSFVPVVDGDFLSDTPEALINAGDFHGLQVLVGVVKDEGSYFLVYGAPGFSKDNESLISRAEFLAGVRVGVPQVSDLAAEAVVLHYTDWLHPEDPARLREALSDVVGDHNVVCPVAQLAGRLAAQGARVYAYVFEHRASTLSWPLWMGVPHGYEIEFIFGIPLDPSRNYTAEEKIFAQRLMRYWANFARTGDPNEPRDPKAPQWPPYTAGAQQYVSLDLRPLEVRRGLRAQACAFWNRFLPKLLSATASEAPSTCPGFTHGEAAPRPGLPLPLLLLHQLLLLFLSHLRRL
UniProt P19643, whole entry: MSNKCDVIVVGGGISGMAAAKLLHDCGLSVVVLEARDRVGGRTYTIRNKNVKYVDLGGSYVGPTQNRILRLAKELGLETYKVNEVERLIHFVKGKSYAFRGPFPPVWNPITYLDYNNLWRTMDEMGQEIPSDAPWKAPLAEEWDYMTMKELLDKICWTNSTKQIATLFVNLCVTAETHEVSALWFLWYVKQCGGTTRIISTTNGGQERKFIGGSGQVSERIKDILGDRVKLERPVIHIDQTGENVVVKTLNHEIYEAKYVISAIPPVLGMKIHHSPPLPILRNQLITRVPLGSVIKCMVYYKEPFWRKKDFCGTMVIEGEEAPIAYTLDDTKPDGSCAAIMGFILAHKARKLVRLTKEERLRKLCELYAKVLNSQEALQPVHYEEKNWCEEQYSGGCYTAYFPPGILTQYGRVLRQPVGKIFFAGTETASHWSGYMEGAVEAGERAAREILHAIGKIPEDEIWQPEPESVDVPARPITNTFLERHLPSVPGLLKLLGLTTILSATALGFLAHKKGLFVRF
UniProt P21396, whole entry: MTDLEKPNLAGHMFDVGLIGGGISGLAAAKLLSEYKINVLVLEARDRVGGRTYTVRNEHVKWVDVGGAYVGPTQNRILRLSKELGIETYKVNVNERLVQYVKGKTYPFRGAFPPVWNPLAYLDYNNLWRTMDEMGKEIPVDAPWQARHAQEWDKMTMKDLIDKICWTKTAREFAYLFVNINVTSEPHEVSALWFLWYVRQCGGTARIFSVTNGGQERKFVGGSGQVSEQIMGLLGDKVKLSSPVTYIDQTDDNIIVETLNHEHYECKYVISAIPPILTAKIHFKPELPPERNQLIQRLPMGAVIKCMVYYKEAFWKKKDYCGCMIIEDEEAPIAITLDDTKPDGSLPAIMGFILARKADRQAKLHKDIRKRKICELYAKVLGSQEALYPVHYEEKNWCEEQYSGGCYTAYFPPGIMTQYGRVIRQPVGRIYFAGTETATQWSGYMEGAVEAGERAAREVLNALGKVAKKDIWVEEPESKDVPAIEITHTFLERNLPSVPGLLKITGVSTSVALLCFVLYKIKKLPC

As usually defined, the IC50 is the concentration that gives 50% inhibition.

Like-named read-outs stand apart in the source and are kept apart here. Some results are limits rather than exact numbers.

One test concerns the target whole brain AChE (Mus musculus, UniProt P21836). The note with it: tested form: HCl; for AChE Inhibition Ex vivo ED50 (AC): mice, whole brain, at peak of activity; for AChE Inhibition Time to peak activity t: mouse, in vivo.
Test [1] concerns the target MAO-A (Mus musculus, UniProt Q64133). The experiment in a line: Inhibition of MAO activity ex vivo (brain). Format: in vivo. The note with it: mice, brain tissue; tested form: HCl.
The target in test [2] is MAO-B (Mus musculus, UniProt Q8BW75). The experiment in a line: Inhibition of MAO activity ex vivo (brain). Type of test: in vivo. The note with it: mice, brain tissue; tested form: HCl.
Test [3] deals with Human erythrocyte acetylcholinesterase (Homo sapiens, UniProt P22303). Conditions: read-out: AChE Inhibition In vitro IC50.
For test [4], the system named is Closed Head Injury (CHI) in Mice. The experiment in a line: Closed Head Injury (CHI) in mice: motor function, neurological severity score (NSS). Format: in vivo. The note with it: 30 mg/kg sc once 15 min after CHI, difference from NSS at 1 hr, tested form: HCl.
Test [5] has as its target T1, MAO-B (Rattus norvegicus, UniProt P19643). The experiment in a line: Inhibition of MAO activity in vitro, PEA as substrate. Format: biochemical. Conditions: read-out: MAO-B Inhibition In vitro IC50, rat brain homogenate, tested form: HCl.
Test [6] addresses T1, MAO-B. The experiment in a line: Inhibition of MAO activity following sub-acute administration to rats. Type of test: in vivo. The note with it: tested form: HCl.
Test [7] relates to Closed Head Injury (CHI) in Mice. Conditions: mice after CHI; 30 mg/kg; retested daily for 2 weeks; FIG. 3; tested form: HCl.
Test [8] addresses T2, MAO-A (Rattus norvegicus, UniProt P21396). The note with it: rats, tested form: HCl; for selectivity of MAO inhibition, brain versus periphery (liver, intestines): daily for 14 days, sc and/or po, MAO-A and MAO-B (Table 11a).
For test [9], the target named is T2, MAO-A. The experiment in a line: Inhibition of MAO activity in vitro, 5-HT as substrate. Type of test: biochemical. Conditions: read-out: MAO-A Inhibition In vitro IC50; rat brain homogenate, 5-HT substrate; tested form: HCl.
Setting [10] is: Brain, sc, 40 mg/kg daily for 14 days.
The mark [11] stands for this setting: Intestine, sc, 40 mg/kg daily for 14 days.
Where [12] appears, read: Liver, sc, 40 mg/kg daily for 14 days.
The mark [13] stands for this setting: Brain, po, 45 mg/kg daily for 14 days.
The mark [14] stands for this setting: Intestine, po, 45 mg/kg daily for 14 days.
[15] abbreviates: Intestine, sc, 45 mg/kg daily for 14 days.
The mark [16] stands for this setting: Liver, po, 45 mg/kg daily for 14 days.
Where [17] appears, read: Liver, sc, 45 mg/kg daily for 14 days.

Take `C#CCNC1CCc2cc(Cl)c(OC(=O)N(C)CC)cc21` (centres unmarked): the “AChE Inhibition Ex vivo ED50 (AC)” value on whole brain AChE is greater than 100 µmol/kg. Also, the “MAO-A Inhibition Ex vivo ED50” value on MAO-A [1] was greater than 100 µmol/kg. On MAO-B [2], the “MAO-B Inhibition Ex vivo ED50” value was 130 µmol/kg. The half-inhibitory concentration (IC50) in test [3] (tested form: HCl) was 29 µM.
Regarding `C#CCNC1CCc2ccc(OC(=O)N(C)CC)cc21` (centres unmarked), the half-inhibitory concentration (IC50) in test [3] (tested form: mesylate) came out at 51 µM.
With `C#CCNC1CCc2cc(Cl)c(OC(=O)N(C)CCC)cc21` (centres unmarked), the “AChE Inhibition Ex vivo ED50 (AC)” value on whole brain AChE was greater than 200 µmol/kg. Besides, the “MAO-A Inhibition Ex vivo ED50” value on MAO-A [1] was greater than 100 µmol/kg. For the same compound, the “MAO-B Inhibition Ex vivo ED50” value at MAO-B [2] is greater than 100 µmol/kg. Besides, in test [3] (tested form: HCl), the IC50 turned out to be 38 µM.
In the case of `C#CCN[C@H]1CCc2ccc(OC(=O)N(C)CC)cc21`, the “ΔNSS, 24 hr post-CHl” value in test [4] was found to be 5.36 ± 0.25. The “ΔNSS, 7 days post-CHl” value in test [4] is 6.71 ± 0.45. Moreover, the “ΔNSS, 14 days post-CHl” value in test [4] amounted to 7.64 ± 0.48. Further, the “AChE Inhibition Ex vivo ED50 (AC)” value at whole brain AChE was 80 µmol/kg. Moreover, the “AChE Inhibition Time to peak activity t” value at whole brain AChE is 30 to 60 min. In addition, the IC50 on MAO-B [5] came out at 1000 µM; in test [3] (tested form: HCl) it was 36 µM. The “% MAO-B inhibition” value is given as 27% at MAO-B [6] (setting [10]), 40% at MAO-B [6] (setting [11]) and 0% at MAO-B [6] (setting [12]). In [7], the “reduction in latency to find the platform, Morris Water Maze, compared to saline treated controls” value is reported as “Memory is enhanced”. Besides, the “% MAO-A inhibition” value at MAO-A [8] (setting [10]) is given as 17%; on MAO-A [8] (setting [11]), 0%; on MAO-A [8] (setting [12]) it was 0%. In addition, at MAO-A [8], the “selectivity of MAO inhibition, brain versus periphery (liver, intestines)” value was “selectivity in inhibiting MAO enzyme sub-types in the brain in preference to the periphery”. In addition, the “MAO-A Inhibition Ex vivo ED50” value at MAO-A [1] is >>200 μmoles/kg. Besides, at MAO-B [2], the “MAO-B Inhibition Ex vivo ED50” value was >>200 μmoles/kg.
As to `C#CCN[C@@H]1CCc2ccc(OC(=O)N(C)CC)cc21`, the “ΔNSS, 24 hr post-CHl” value in test [4] was 5.50 ± 0.26. For the same compound, in [4], the “ΔNSS, 7 days post-CHl” value came out at 6.92 ± 0.38. For the same compound, the “ΔNSS, 14 days post-CHl” value in test [4] turned out to be 8.25 ± 0.62. Moreover, the “AChE Inhibition Ex vivo ED50 (AC)” value at whole brain AChE was found to be 125 µmol/kg. The IC50 on MAO-B [5] is 500 µM; at MAO-A [9], 750 µM; in [3] (tested form: HCl) it was 51 µM. Also, the “% MAO-B inhibition” value came out at 82% on MAO-B [6] (setting [13]); 21% on MAO-B [6] (setting [14]); 26% on MAO-B [6] (setting [15]); 28% at MAO-B [6] (setting [16]); 29% on MAO-B [6] (setting [17]). In addition, in [7], the “reduction in latency to find the platform, Morris Water Maze, compared to saline treated controls” value was “Memory is enhanced”. For the same compound, the “% MAO-A inhibition” value at MAO-A [8] (setting [13]) turned out to be 67%; at MAO-A [8] (Brain, sc, 45 mg/kg daily for 14 days), 78%; on MAO-A [8] (setting [14]), 0%; on MAO-A [8] (setting [15]), 0%; on MAO-A [8] (setting [16]), 28%; at MAO-A [8] (setting [17]), 0%. Also, the “selectivity of MAO inhibition, brain versus periphery (liver, intestines)” value at MAO-A [8] is on record as “selectivity in inhibiting MAO enzyme sub-types in the brain in preference to the periphery”. In addition, the “MAO-A Inhibition Ex vivo ED50” value on MAO-A [1] is greater than 200 µmol/kg. The “MAO-B Inhibition Ex vivo ED50” value at MAO-B [2] amounted to 200 µmol/kg.
For the compound `C#CCN[C@@H]1CCc2ccc(OC(=O)N(C)CCC)cc21`, at whole brain AChE, the “AChE Inhibition Ex vivo ED50 (AC)” value was found to be 101 µmol/kg and the “AChE Inhibition Time to peak activity t” value was in the range of 60 to 90 min. The “MAO-A Inhibition Ex vivo ED50” value on MAO-A [1] is on record as >>450 μmoles/kg. For the same compound, the “MAO-B Inhibition Ex vivo ED50” value at MAO-B [2] was found to be 450 µmol/kg. In addition, the IC50 in test [3] (tested form: HCl) amounted to 10 µM.
